Molecules are shown by their SMILES. This is a selection; strong and weak results do not stand in their true shares. Some salts or complexes appear as unconnected parts, following the source record. Active and inactive are the calls of the source.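 Rule for the calls: active = B-score, a plate-corrected calcium signal, over three deviations above library mean, with baseline fluorescence within five deviations of library mean; inactive = the rest.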

Chains of the proteins cited; added tags and fusions are not shown.
UniProt P49798, whole entry: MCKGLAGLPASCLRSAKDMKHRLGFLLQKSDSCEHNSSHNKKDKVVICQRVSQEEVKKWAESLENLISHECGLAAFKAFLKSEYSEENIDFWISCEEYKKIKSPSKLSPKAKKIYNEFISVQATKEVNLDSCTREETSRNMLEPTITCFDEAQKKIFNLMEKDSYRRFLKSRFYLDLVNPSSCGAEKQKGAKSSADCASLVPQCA

We go through 115 molecules from PubChem BioAssay AID463165 (Johns Hopkins Ion Channel Center, 2010).

The target of the test is Regulator of G-protein signaling 4 (Homo sapiens) (UniProt P49798). The experiment in a line: blockers of RGS4 function in M3R calcium signaling – cell-based, HEK293 M3R inducible RGS4, calcium flux, primary screen (AID 463165).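 Note: RGS4 expression induced by doxycycline in cells with stable M3 receptor.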 The following applies: Fluo-4 calcium flux, at 10 µM, triggered by carbachol at its EC20. For orientation: A change in cytosolic calcium serves as a functional read-out for many receptors and channels.
Take `Cc1ccc(OP(=O)(Nc2nccs2)Oc2ccc(C)cc2)cc1`: the outcome was inactive. For `COc1ccc(OP(C)(=O)Nc2ccccn2)cc1` (stereo not given), the outcome was inactive. With `COc1ccccc1OP(=O)(Nc1ccc(C)cn1)Oc1ccccc1OC` the entry was “inactive”; with `CN(C)CCOC(=O)C(O)(c1ccccc1)C1CCCC1` (stereo not given), “inactive”.

Turning to `Clc1ccc(Cl)c(NC2=NCC(CBr)S2)c1` (stereo not given), the result was inactive. For `CN1CCCC(OC(=O)C(c2ccccc2)c2ccccc2)C1` (stereo not given), the outcome was inactive.

As for `NC(=O)c1cc([N+](=O)[O-])cc([N+](=O)[O-])c1N`, the outcome was inactive. Consider `Cc1ccc(N/C(=N/P(=O)(N2CCOCC2)N2CCOCC2)N2CCOCC2)cc1`, for which the outcome was inactive. Take `COc1ccccc1OP(C)(=O)Nc1ccc(Br)cc1` (stereo not given): the outcome was inactive. In the case of `COc1ccccc1OP(C)(=O)Nc1ccc(C)cc1C` (stereo not given) it was “inactive”. As for `CP(=O)(Nc1ccccn1)Oc1ccccc1` (stereo not given), the result was inactive. In the case of `CCc1ccc(OP(C)(=O)O)cc1` it was “inactive”; in that of `O=[N+]([O-])c1cc([N+](=O)[O-])c(Nc2ccccn2)c([N+](=O)[O-])c1`, “inactive”.

Turning to `CC(C)CC(=O)NC(Sc1ccc(Cl)cc1)C(Cl)(Cl)Cl` (stereo not given), the result was inactive. For the molecule `Nc1cc(N)c2nonc2c1[N+](=O)[O-]`, the outcome was inactive.

For `Cc1c(NP(C)(=O)Oc2ccc(C(C)C)cc2)c(=O)n(-c2ccccc2)n1C` (stereo not given), the outcome was inactive.

On to `Cc1c2non([O-])c-2c(C)[n+](=O)[n+]1[O-]`, for which the result was inactive.

On to `O=C(NC(Sc1ccncn1)C(Cl)(Cl)Cl)c1ccccc1` (stereo not given), for which the outcome was inactive. Turning to `Oc1ccccc1CNc1ccccn1`, the outcome was inactive. In the case of `CN(C(=O)Cc1ccc(Cl)c(Cl)c1)[C@H]1CCCC[C@@H]1N1CCCC1`, the result was inactive. With `Cc1ccc(NP(=O)(Oc2ccccc2F)Oc2ccccc2F)nc1`, the result was inactive. In the case of `COc1ccccc1OP(C)(=O)Nc1ccc(C)c(C)c1` (stereo not given), the outcome was inactive. For the molecule `CCOP(=O)(Nc1ccccc1)OCC`, the outcome was inactive. As to `Cc1cc(SC(NC(=O)c2ccc(F)cc2)C(Cl)(Cl)Cl)ncn1` (stereo not given), the result was inactive. `COc1ccc(OP(C)(=O)Nc2ccccc2Br)cc1` (stereo not given): the outcome was inactive. Turning to `O=C(O)c1ccccc1[As](=O)(O)O`, the outcome was inactive. Turning to `CC(=O)Nc1ccc([As](=O)(O)O)cc1`, the outcome was inactive. Take `Cc1cc(C)cc(OP(C)(=O)Nc2cccc(C(F)(F)F)c2)c1` (stereo not given): the result was inactive. For `O=P(Nc1nc2ccc(Cl)cc2s1)(c1ccccc1)c1ccccc1`, the outcome was inactive.

On to `CCN(N=Nc1nonc1N)c1nonc1N`, for which the outcome was inactive. Turning to `CP(=O)(OCCOc1ccccc1)OCCOc1ccccc1`, the outcome was inactive. Take `CP(=O)(Nc1ccc(Cl)cc1Cl)Oc1ccccc1` (stereo not given): the result was inactive.

Regarding `Nc1cccc2ccc([As](=O)(O)O)cc12`, the result was inactive. With `Cc1nc2ccc3ccccc3c2o1.O=[N+]([O-])c1cc([N+](=O)[O-])c(O)c([N+](=O)[O-])c1` the entry was “inactive”. Turning to `O=[N+]([O-])c1cc([N+](=O)[O-])c(CCN2CCOCC2)c([N+](=O)[O-])c1`, the outcome was inactive. With `O=C(Nc1cc([As](=O)(O)O)ccc1O)c1ccccc1` the entry was “inactive”. Consider `CCOC(=O)c1ccc(NP(C)(=O)Oc2ccc(Cl)cc2)cc1` (stereo not given), for which the result was inactive. For the molecule `CP(=O)(OC12CC3CC(CC(C3)C1)C2)OC12CC3CC(CC(C3)C1)C2`, the result was inactive. Turning to `Nc1ccc2c(ccc3cccnc32)n1.O=[N+]([O-])c1cc([N+](=O)[O-])c(O)c([N+](=O)[O-])c1`, the outcome was inactive. `O=[N+]([O-])c1cccc(NC2=NCC(CBr)S2)c1` (stereo not given): the result was inactive. With `O=C(O)CNc1ccc([As](=O)(O)O)cc1`, the outcome was inactive. As to `CC(C)(C)C(=O)NC(Sc1ccncn1)C(Cl)(Cl)Cl` (stereo not given), the outcome was inactive.

Consider `O=[N+]([O-])c1ncn(CCn2ncnc2[N+](=O)[O-])n1`, for which the outcome was inactive. Consider `O=C(OCCCN1CCCC1)C(O)(c1ccccc1)C1CCCCC1` (stereo not given), for which the outcome was inactive. For `COc1ccccc1OP(C)(=O)Nc1c(C)n(C)n(-c2ccccc2)c1=O` (stereo not given), the result was inactive. For `CC(=O)N1C2C3N(C(C)=O)C1C1N(C(C)=O)C(C(N1C(C)=O)N3C(C)=O)N2C(C)=O`, the outcome was inactive. In the case of `O=[N+]([O-])c1cccc2n[nH]nc12` it was “inactive”; in that of `O=[N+]([O-])c1cc([N+](=O)[O-])c(CCNc2ccccc2)c([N+](=O)[O-])c1`, “inactive”. Consider `CCc1ccc(OP(C)(=O)Nc2cccnc2)cc1` (stereo not given), for which the result was inactive. In the case of `Cc1ccc(NP(=O)(Oc2ccccc2)Oc2ccccc2)nc1` it was “inactive”. Consider `CP(=O)(Oc1ccccc1)N1CCOC1=O` (stereo not given), for which the outcome was inactive. In the case of `COc1ccc(C2=NCC(CBr)S2)cc1` (stereo not given) it was “inactive”; in that of `COc1ccc(OP(C)(=O)Nc2ccc(Br)cc2)cc1` (stereo not given), “inactive”; in that of `CCN(CC)CC(O)COC(=O)C(O)(c1ccccc1)C1CCCCC1` (stereo not given), “inactive”.

As to `CN(C)C(=O)OCCc1n(C)cc[n+]1C`, the outcome was inactive.

For the molecule `CC(C)=N/N=C(\N)N[N+](=O)[O-]`, the outcome was inactive. On to `CN(C)C(=O)c1c([N+](=O)[O-])cc([N+](=O)[O-])cc1[N+](=O)[O-]`, for which the result was inactive. On to `CC1CCN(C(=O)Oc2c(Cl)cc(Cl)c3cccnc23)CC1`, for which the outcome was inactive. `C[N+]1=C2C=CC=CC=C2SC12C([N+](=O)[O-])=CC([N+](=O)[O-])=C[C-]2[N+](=O)[O-]` (stereo not given): the outcome was inactive. `Nc1ccc([As](=O)(O)c2ccc(N)cc2)cc1`: the outcome was inactive. Regarding `CC(C)(C)c1ccc(OP(C)(=O)O)cc1`, the outcome was inactive. On to `COc1ccccc1OP(C)(=O)Nc1ccccc1Br` (stereo not given), for which the outcome was inactive.

For `CP(=O)(Nc1ccc(Cl)cc1)Oc1ccc(F)cc1` (stereo not given), the outcome was inactive. With `CCN(/C(=N/P(=O)(N1CCOCC1)N1CCOCC1)N1CCOCC1)c1ccc(OC)cc1`, the outcome was inactive. Regarding `CCOP(C)(=S)SCC(=O)NC(C)(CC)C(=O)O` (stereo not given), the outcome was inactive. Regarding `c1nnnn1CCn1cnnn1`, the outcome was inactive.

For the molecule `CP(=O)(Nc1ccc(SC(F)(F)F)cc1)Oc1ccc(F)cc1` (stereo not given), the outcome was inactive.

For `O=P(Nc1nccs1)(c1ccccc1)c1ccccc1`, the outcome was inactive.

Regarding `CC(C)C(=O)NC(Sc1ccccc1)C(Cl)(Cl)Cl` (stereo not given), the outcome was inactive.

In the case of `CP(=O)(Nc1ccc2c(c1)OCCO2)Oc1ccccc1` (stereo not given), the result was inactive. In the case of `C[C@H]1OP(=O)(Oc2ccccc2)[C@H](O)[C@H](O)[C@H]1N=[N+]=[N-]` (stereo not given in full), the result was inactive.

`O=P(Nc1nc2ccccc2s1)(c1ccccc1)c1ccccc1`: the outcome was inactive. For the molecule `CN(C)CCOC(=O)C(O)(c1ccccc1)C1CCCCC1` (stereo not given), the result was inactive. `COc1ccc(NP(C)(=O)Oc2ccccc2OC)cc1` (stereo not given): the result was inactive. In the case of `COc1ccc(OP(C)(=O)Nc2cccc(Br)c2)cc1` (stereo not given) it was “inactive”; in that of `CN(C)C1(CNC(=O)c2ccc(Cl)c(S(N)(=O)=O)c2)CCCCC1`, “inactive”. Consider `O=P(Nc1ccccn1)(c1ccc(Br)cc1)c1ccc(Br)cc1`, for which the result was inactive. With `Nc1ccc([As](=O)(O)c2ccc([N+](=O)[O-])cc2)cc1`, the result was inactive. Take `C(Cc1nn[nH]n1)Cc1nn[nH]n1`: the result was inactive. For `O=C(OC1CN2CCC1CC2)c1cccc(Cl)c1` (stereo not given), the result was inactive. In the case of `O=[N+]([O-])c1ncn(CCn2cnc([N+](=O)[O-])n2)n1` it was “inactive”; in that of `O=[N+]([O-])c1ccc(OP2(=O)COCCO2)cc1` (stereo not given), “inactive”; in that of `CC(=O)NC(SC(=S)N(C)C)C(Cl)(Cl)Cl` (stereo not given), “inactive”. Turning to `O=[N+]([O-])c1ccc(O)c(/C=N/Nc2ccc([N+](=O)[O-])cc2[N+](=O)[O-])c1`, the outcome was inactive.

`O=[N+]([O-])c1cc([N+](=O)[O-])c(NCC2CCS(=O)(=O)C2)c([N+](=O)[O-])c1` (stereo not given): the result was inactive. In the case of `Cc1cc(-c2cccc3ccccc23)c(C)cn1.O=[N+]([O-])c1cc([N+](=O)[O-])c(O)c([N+](=O)[O-])c1`, the outcome was inactive. In the case of `O=[As](O)(c1ccccc1)c1ccc(O)cc1` it was “inactive”; in that of `CCOC(=O)c1ccc(NP(C)(=O)Oc2ccc(F)cc2)cc1` (stereo not given), “inactive”. For the molecule `COc1ccc(OP(C)(=O)Nc2ccc(SC(F)(F)F)cc2)cc1` (stereo not given), the outcome was inactive. `O=C(NC1CCS(=O)(=O)C1)NP(=S)(Oc1ccccc1)Oc1ccccc1` (stereo not given): the result was inactive.

Consider `CCNC(=S)/N=C(\N)N[N+](=O)[O-]`, for which the result was inactive. For `CCOC(=O)NC(Sc1ccccc1)C(Cl)(Cl)Cl` (stereo not given), the outcome was inactive. Turning to `Cc1ccc(NP(=O)(Oc2cccc(C)c2)Oc2cccc(C)c2)nc1`, the outcome was inactive. In the case of `c1ccc(-c2nn[nH]n2)c(-c2nn[nH]n2)c1`, the outcome was inactive.

With `CP(=O)(Nc1ccccc1)Oc1ccc(F)cc1` (stereo not given), the result was inactive. `CN(C)C(=O)Oc1noc2ccccc12`: the outcome was inactive.

As to `O=[N+]([O-])c1cc([N+](=O)[O-])c(OC2CCCCC2O)c([N+](=O)[O-])c1` (stereo not given), the result was inactive. As for `CCCCCOc1ccc(NP(C)(=O)Oc2ccc(Cl)cc2Cl)cc1` (stereo not given), the result was inactive.

As to `Cc1ccccc1OP(=O)(Nc1ccccn1)Oc1ccccc1C`, the outcome was inactive. In the case of `Cc1ccc(OP(=O)(Nc2ccccn2)Oc2ccc(C)cc2)cc1` it was “inactive”; in that of `CC(=O)NC(SC(=S)N(CC(C)C)CC(C)C)C(Cl)(Cl)Cl` (stereo not given), “inactive”; in that of `COC(=O)c1cc2c(s1)N=C(c1ccccc1)N(C)P2(=O)N1CCOCC1` (stereo not given), “inactive”. On to `CCC(=O)N1C2C3N(C(=O)CC)C1C1N(C(=O)CC)C(C(N1C(=O)CC)N3C(=O)CC)N2C(=O)CC`, for which the result was inactive.

Consider `CCN(CC)CCCOC(=O)C(O)(c1ccccc1)C1CCCCC1` (stereo not given), for which the result was inactive.

For the molecule `O=C(OC1CN2CCC1CC2)c1ccccc1` (stereo not given), the result was inactive.

In the case of `CP(=O)(Nc1ccccc1F)Oc1ccccc1` (stereo not given), the outcome was inactive. In the case of `CC(C)c1ccc(OP(C)(=O)Nc2ccc(SC(F)(F)F)cc2)cc1` (stereo not given) it was “inactive”; in that of `CC(C)(C)C(=O)NC(Sc1ccccc1)C(Cl)(Cl)Cl` (stereo not given), “inactive”; in that of `CCOc1ccc(C2=NCC(CBr)S2)cc1` (stereo not given), “inactive”.

Turning to `O=P1(Nc2nc3ccc(Cl)cc3s2)COc2ccccc2O1` (stereo not given), the result was inactive. For `CC(=O)Nc1ccc(Oc2c([N+](=O)[O-])cc([N+](=O)[O-])cc2[N+](=O)[O-])cc1`, the result was inactive. On to `COc1ccc2c(c1O)-c1c(O)c(OC)cc3c1[C@H](C2)[N+](C)(C)CC3.O=[N+]([O-])c1cc([N+](=O)[O-])c([O-])c([N+](=O)[O-])c1[O-]`, for which the result was inactive. On to `CC(=O)Nc1ccc([As](=O)(O)O)c(O)c1`, for which the result was inactive. Regarding `O=C(OC1CN2CCC1CC2)c1ccc([N+](=O)[O-])cc1` (stereo not given), the result was inactive. As for `CC(=O)c1ccc(N2CC2c2ccncc2)cc1` (stereo not given), the result was inactive.
